The text below walks through data of BindingDB's records for doi:10.1021/acs.jmedchem.0c00960 (Endotherm, 2020).

Protein sequences, listed by entry. Tags and fused reporters are not part of them.
UniProt P24864, whole entry, looked up: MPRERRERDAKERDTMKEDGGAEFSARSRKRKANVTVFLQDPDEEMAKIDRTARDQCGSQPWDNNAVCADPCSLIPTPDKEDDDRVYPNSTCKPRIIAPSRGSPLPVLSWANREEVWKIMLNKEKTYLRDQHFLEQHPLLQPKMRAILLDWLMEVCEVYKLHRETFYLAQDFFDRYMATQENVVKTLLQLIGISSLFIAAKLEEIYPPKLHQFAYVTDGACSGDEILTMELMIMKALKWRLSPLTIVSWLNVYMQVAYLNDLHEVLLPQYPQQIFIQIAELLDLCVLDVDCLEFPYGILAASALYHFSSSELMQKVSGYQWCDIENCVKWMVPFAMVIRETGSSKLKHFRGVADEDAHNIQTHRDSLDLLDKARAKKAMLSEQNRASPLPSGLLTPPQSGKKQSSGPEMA
UniProt P06493, whole entry: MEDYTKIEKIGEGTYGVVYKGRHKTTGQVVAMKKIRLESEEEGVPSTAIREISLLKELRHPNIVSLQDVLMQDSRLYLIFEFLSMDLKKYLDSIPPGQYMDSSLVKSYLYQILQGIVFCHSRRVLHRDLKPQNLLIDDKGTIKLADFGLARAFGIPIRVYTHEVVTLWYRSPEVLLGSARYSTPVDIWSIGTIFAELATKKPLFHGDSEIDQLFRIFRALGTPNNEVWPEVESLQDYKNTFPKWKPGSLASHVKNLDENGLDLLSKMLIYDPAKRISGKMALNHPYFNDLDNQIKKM
UniProt P14635, whole entry: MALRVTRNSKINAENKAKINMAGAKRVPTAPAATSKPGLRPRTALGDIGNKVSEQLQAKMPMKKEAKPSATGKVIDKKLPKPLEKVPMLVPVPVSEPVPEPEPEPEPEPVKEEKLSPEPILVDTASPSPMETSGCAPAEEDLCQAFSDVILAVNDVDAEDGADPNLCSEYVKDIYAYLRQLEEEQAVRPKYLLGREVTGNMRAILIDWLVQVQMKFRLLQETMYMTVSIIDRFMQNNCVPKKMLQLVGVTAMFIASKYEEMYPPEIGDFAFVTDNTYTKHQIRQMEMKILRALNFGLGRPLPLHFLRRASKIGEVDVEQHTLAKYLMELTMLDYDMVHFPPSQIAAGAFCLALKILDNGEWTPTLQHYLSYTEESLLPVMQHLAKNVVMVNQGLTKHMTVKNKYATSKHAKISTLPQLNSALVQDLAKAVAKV

Assay [1] concerns the target Cyclin-dependent kinase 2/G1/S-specific cyclin-E1 (Homo sapiens, UniProt P24941+P24864).
Assay [2] concerns the target Cyclin-dependent kinase/G2/mitotic-specific cyclin- 1 (Homo sapiens, UniProt P06493+P14635).

For the compound `C[C@@H](O)[C@@H](C)Oc1nc(Nc2ccc(S(C)(=O)=O)cc2)ncc1C(F)(F)F` [US8802686, 2], the 50% inhibitory concentration (IC50) in assay [1] stood at 8 nM; in assay [2], 9 nM.
